Bioassay records deposited in PubChem by Broad Institute.
UUG fidelity: modulators of start codon recognition fidelity in yeast; S. cerevisiae UUG-firefly luciferase reporter, luminescence/redox ratio; activity score, % at 18.7 µM; 0.13% of 350,000 active;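 active = replicate mean at a twofold rise or more, about +100% in these data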;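 also: firefly luciferase made from a UUG start codon reports start codon fidelity; reporter light over untreated wells divided by growth signal over untreated wells; some hits fall short of that in this replicate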
esBAF inh: blocks esBAF chromatin remodeling in mouse ES cells; Bmi1-luciferase knock-in reporter, 24 h; 100% = twice the neutral-well signal; reporter increase, % at 12.5 µM; 2% of 350,000 active; AID 602393; in the data active = activation above about 40%; inconclusive = no clear call, values can overlap the other calls;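 also: 0% = median of the plate's neutral control wells and 100% = double that signal; a rise in the Bmi1 reporter signal indicates esBAF inhibition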
PglD DTNB: PglD (C. jejuni) enzyme inhibition; 0.098% of 360,000 active; inhibition, % at 12.5 µM; purified PglD enzyme, DTNB colorimetric CoA detection; in the data active = inhibition above about 16%, passing the limit was not always enough; inconclusive = no clear call, values can overlap the other calls
PGC1a acetyl inh: PGC1a acetylation modulation, inhibitor mode; AID 651687; 0.17% of 350,000 active; U2OS PGC1a acetylation, AlphaScreen anti-acetyl-lysine; with virally co-expressed GCN5 acetyltransferase; inhibition, % at 15.6 µM;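 active = every replicate shows inhibition of at least 40%; inconclusive = mean inhibition at least 40% but some replicate below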;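 also: 0% = neutral control wells and 100% = positive control wells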
Statin myotox sup: protects C2C12 myotubes from simvastatin toxicity. AID 602340. rescue of ATP level, % at 7.49 µM. 0.78% of 330,000 active. ATP luminescence, 48 h; scaled: DMSO 0, geranylgeraniol control 100;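 active = mean ATP rescue above about 67%, or every replicate alone reaching that limit, limit read from the data, passing the limit was not always enough; inconclusive = no clear call, values can overlap the other calls; inactive = mean under the limit and some replicate under it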;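 also: myotubes were challenged with 10 µM simvastatin during compound exposure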
E-sel inducer: induces E-selectin expression in human endothelial cells | P16581 | HUVEC E-selectin immunofluorescence imaging; normalized: neutral wells 0, TNF-alpha wells 100 | activation, % at 7.58 µM | 0.37% of 260,000 active | AID 686992;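 active = mean E-selectin-positive cell signal at least 10% of the positive control, reached in at least 60% of replicates, without over 20% cell loss; inconclusive = no rule given, readout overlaps actives, possibly toxicity-flagged; inactive = the rest, including those meeting only one limit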
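Test system: HUVEC; input: 3,000 HUVEC/well; measured by: immunofluorescence imaging; read-out: % PE-positive cells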
Starred values were filed as active, the others as inactive; ? = inconclusive; . = no result given. This is a sample that favours compounds with a hit; in the whole collection about 2.8% have one here.

SMILES	UUG fidelity	esBAF inh	PglD DTNB	PGC1a acetyl inh	Statin myotox sup	E-sel inducer
C[C@@H]1CN([C@@H](C)CO)C(=O)Cc2cc(NC(=O)CCCCCC(=O)Nc3ccccc3N)ccc2O[C@@H]1CN(C)Cc1ccc(-c2ccccc2)cc1	10.2	5.1	-2.9	9.8	19.2	.
C[C@H](CO)N1C[C@H](C)[C@H](CN(C)Cc2ccccc2)Oc2ccc(NC(=O)CCCCCC(=O)Nc3ccccc3N)cc2CC1=O	7.0	-3.7	0.4	0.2	79.9*	0.6
C[C@H]1CN([C@@H](C)CO)C(=O)Cc2cc(NC(=O)CCCCCC(=O)Nc3ccccc3N)ccc2O[C@H]1CN(C)Cc1ccc(Cl)c(Cl)c1	4.2	-19.6	0.1	0.6	105.4*	75.3*
Cc1noc(C)c1NC(=O)Nc1ccc2c(c1)C(=O)N([C@H](C)CO)C[C@H](C)[C@H](CN(C)C(=O)Nc1ccc(F)cc1)OCCCC[C@H](C)O2	22.5	2.8	3.1	-10.4	-12.7	0.0
CCC(=O)N1[C@H](CO)[C@@H](c2ccc(-c3ccccc3)cc2)[C@H]1CNC(=O)COC	3.7	0.1	-1.4	-8.8	5.2	0.0
COC(=O)C[C@H]1C[C@@H]2c3cc(NS(=O)(=O)c4ccc(F)cc4)ccc3O[C@@H]2[C@H](CO)O1	1.4	0.1	3.5	-3.6	-0.8	-0.1
C[C@H](CO)N1C[C@H](C)[C@H](CN(C)S(=O)(=O)c2cn(C)cn2)Oc2c(NC(=O)CCCCCC(=O)Nc3ccccc3N)cccc2C1=O	.	.	.	7.3	.	-3.2
C[C@@H]1CN([C@@H](C)CO)C(=O)c2cccc(NC(=O)CCCCCC(=O)Nc3ccccc3N)c2O[C@@H]1CN(C)Cc1ccccc1	.	.	.	-1.7	.	-0.1
C[C@@H]1CN([C@H](C)CO)C(=O)c2cccc(NC(=O)CCCCCC(=O)Nc3ccccc3N)c2O[C@@H]1CN(C)S(=O)(=O)c1cn(C)cn1	.	.	.	-7.8	.	391.2*
C[C@H](CO)N1C[C@H](C)[C@H](CN(C)Cc2ccc(Cl)c(Cl)c2)Oc2c(NC(=O)CCCCCC(=O)Nc3ccccc3N)cccc2C1=O	.	.	.	-17.3	.	409.7*
CC(C)c1cc(CNC(=O)CCc2nnc(CCCc3ccccc3)o2)on1	.	.	.	.	.	0.0
CCc1cc(CNC(=O)CCc2nnc(CCCc3ccccc3)o2)on1	-12.8	57.1*	-0.5	-10.7	-5.0	3.9

Looked up one by one from the entries so far (three):
SMILES	UUG fidelity	esBAF inh	PglD DTNB	PGC1a acetyl inh	Statin myotox sup	E-sel inducer
CCc1cc(CNC(=O)CCc2nnc(CCCc3ccccc3)o2)on1	-12.8	57.1*	-0.5	-10.7	-5.0	3.9
C[C@@H]1CN([C@@H](C)CO)C(=O)Cc2cc(NC(=O)CCCCCC(=O)Nc3ccccc3N)ccc2O[C@@H]1CN(C)Cc1ccc(-c2ccccc2)cc1	10.2	5.1	-2.9	9.8	19.2	.
C[C@@H]1CN([C@@H](C)CO)C(=O)c2cccc(NC(=O)CCCCCC(=O)Nc3ccccc3N)c2O[C@@H]1CN(C)Cc1ccccc1	.	.	.	-1.7	.	-0.1

(listing goes on)
SMILES	UUG fidelity	esBAF inh	PglD DTNB	PGC1a acetyl inh	Statin myotox sup	E-sel inducer
COc1ccc2c3c(n(C)c2c1)[C@@H](CO)N(S(C)(=O)=O)CC31CCN(Cc2cccnc2)CC1	.	.	.	3.4	.	0.4
COc1ccc(CN2CCN(C(=O)c3cccs3)CC2)cc1Br	-14.4	-0.2	1.1	3.7	156.8*	.
O=C(c1cccs1)N1CCN(C2CCCCC2)CC1	-7.5	-7.8	1.2	0.5	1.3	.
O=C(c1cccs1)N1CCN(C2CCN(Cc3ccccc3)CC2)CC1	-17.4	-0.6	-2.6	2.7	100.9*	.
COc1ccc(CN2CCN(C(=O)c3cccc4ccccc34)CC2)cc1Br	-14.2	-0.8	-0.3	-1.8	-5.8	0.9
O=C(C[C@@H]1C=C[C@H](NS(=O)(=O)c2ccccc2)[C@@H](CO)O1)NCc1ccncn1	-14.1	2.8	-0.5	-3.9	0.6	0.1
Cn1nccc1C(=O)Nc1ccc(Cl)cc1	-16.3	48.2*	1.4	-0.1	24.2	.
Cn1nccc1C(=O)Nc1cc(Cl)ccc1Cl	-20.8	-6.0	-2.5	-28.2	-20.2	.
CS(=O)(=O)NN1C(=O)c2ccccc2NC1c1cc2ccccc2nc1Cl (configuration not stated)	.	89.3*	.	5.3	18.3	0.0
CCCN1CCN(C(=O)c2ccc(CS(=O)c3ccc(Cl)cc3)o2)CC1 (configuration not stated)	-7.9	-2.4	-1.0	2.6	-4.7	49.1*
COc1ccc2c3c([nH]c2c1)[C@H](CO)NCC31CCN(C(=O)C2CCCC2)CC1	.	.	.	.	.	-0.4
COc1cc(C)c(Cl)cc1S(=O)(=O)NCCCN1CCOCC1	-6.0	-1.5	2.8	-12.1	-22.6	.
COc1cc(C)c(Cl)cc1S(=O)(=O)NCCN1CCOCC1	45.9	-2.8	-0.9	-11.8	123.3*	.
C[C@@H]1CN([C@H](C)CO)C(=O)c2cc(NS(C)(=O)=O)ccc2O[C@H]1CN(C)CC1CCCCC1	-2.7	-3.0	4.4	16.0	18.6	0.0
N#Cc1ccccc1OCC(=O)NC(=O)NCc1ccccc1	.	.	.	2.5	.	.
CCNC(=O)NC(=O)COc1ccccc1C#N	-18.6	91.1*	2.1	?	4.6	.
CCc1nc2sc3c(c2c(=O)o1)CCCC3	.	-6.2	.	5.8	9.3	.
O=c1oc(-c2cccs2)nc2scc(-c3cccs3)c12	-20.5	63.5*	-2.7	-1.6	.	.
Cc1ccccc1-c1nc2sc3c(c2c(=O)o1)CCC3	-14.8	7.5	2.2	11.2	.	.
O=c1oc(-c2cc3ccccc3o2)nc2sc3c(c12)CCCC3	-9.2	53.4*	0.0	12.4	-66.2	.
O=c1oc(-c2ccccc2)nc2sc3c(c12)CCCC3	-16.4	56.0*	-2.0	8.5	-38.9	.
Cc1nc2scc(-c3cccs3)c2c(=O)o1	.	.	.	-1.4	.	.
O=c1oc(-c2cccs2)nc2sc3c(c12)CCCCC3	-8.0	43.0*	2.3	-5.3	-7.2	.
C/C=C/c1cnc2c(c1)C(=O)N([C@@H](C)CO)C[C@H](C)[C@@H](CN(C)C(=O)Cc1ccccn1)O2	-4.6	6.6	-3.7	-1.2	0.2	-0.4
COc1ccccc1CN(C)C[C@H]1OCc2cn(nn2)CCCC(=O)N([C@@H](C)CO)C[C@H]1C	-18.1	-3.6	-3.7	-2.2	-2.7	0.5
O=C(c1ccco1)N1N=C(c2ccccc2O)CC1c1cccs1 (configuration not stated)	17.7	-6.3	0.6	-5.9	70.3*	-0.6
CCS(=O)(=O)Nc1ccc2c(c1)C(=O)N(C)C[C@H](OC)[C@H](C)CN(Cc1nccs1)[C@@H](C)CO2	-13.4	-9.7	-2.6	-0.1	8.3	-0.2
Clc1ccc(-c2nc3ccc(Br)cn3c2Cc2cccc(Cl)c2)cc1	-11.3	?	3.4	-10.4	-18.5	0.1
Cc1ccc(-c2nc3ccc(C)cn3c2Cc2cccc(Cl)c2)cc1	.	.	.	.	.	0.0
Cc1ccc(-c2nc3ccc(Br)cn3c2Cc2cccc(Cl)c2)cc1	-18.1	43.4*	1.8	8.7	-13.3	-1.9
COC(=O)c1ccc2nc(-c3ccco3)c(Cc3ccsc3)n2c1	.	.	.	.	.	0.0
Clc1ccc(-c2nc3ccc(Cl)cn3c2Cc2ccsc2)cc1	-8.6	71.0*	1.3	-4.5	-13.3	0.8
COC(=O)c1ccc2nc(-c3ccco3)c(Cc3ccccc3)n2c1	7.1	10.9	-6.2	-2.8	83.1*	.
Cc1ccc(-c2nc3ccc(Cl)cn3c2Cc2cccc(Cl)c2)cc1	-12.0	49.8*	4.2	-12.2	-3.2	.
C[C@@H]1CN([C@H](C)CO)C(=O)c2cccc(NC(=O)CCCCCC(=O)Nc3ccccc3N)c2O[C@@H]1CN(C)C(=O)Nc1ccc2c(c1)OCO2	.	.	.	1.0	.	0.0

Three compounds already listed, sorted by the value under UUG fidelity, rising:
structure | UUG fidelity
Clc1ccc(-c2nc3ccc(Cl)cn3c2Cc2ccsc2)cc1 | -8.6
C[C@@H]1CN([C@H](C)CO)C(=O)c2cc(NS(C)(=O)=O)ccc2O[C@H]1CN(C)CC1CCCCC1 | -2.7
CCC(=O)N1[C@H](CO)[C@@H](c2ccc(-c3ccccc3)cc2)[C@H]1CNC(=O)COC | 3.7
